Results on one compound are retold here after patent EP0556947A1, “Use of M1-selective antimuscarinic pyridobenzodiazepinones for the treatment and prevention of axial myopia” (MERCK & CO. INC., priority 1992, dated 1993).

The chains behind the UniProt entries cited, without tags or fusion partners.
UniProt P10980, whole entry: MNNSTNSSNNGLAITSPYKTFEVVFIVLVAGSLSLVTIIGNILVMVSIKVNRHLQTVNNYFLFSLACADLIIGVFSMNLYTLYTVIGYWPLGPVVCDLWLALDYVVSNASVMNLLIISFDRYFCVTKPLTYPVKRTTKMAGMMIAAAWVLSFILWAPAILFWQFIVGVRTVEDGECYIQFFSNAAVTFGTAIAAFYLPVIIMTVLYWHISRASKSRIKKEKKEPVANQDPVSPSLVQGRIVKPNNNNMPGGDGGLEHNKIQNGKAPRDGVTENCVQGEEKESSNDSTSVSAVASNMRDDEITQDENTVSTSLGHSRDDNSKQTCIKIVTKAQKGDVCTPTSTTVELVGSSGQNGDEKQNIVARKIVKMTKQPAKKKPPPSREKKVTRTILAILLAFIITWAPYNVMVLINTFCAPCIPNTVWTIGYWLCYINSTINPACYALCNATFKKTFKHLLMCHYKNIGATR

As usually defined, the Kd is a measure of binding affinity in units of concentration. A high value points to a looser complex.

In the assay the target is M₂ receptors (Rattus norvegicus, UniProt P10980). Briefly: ³H-AFDX-384 radioligand binding assay, rat heart. Conditions: Scatchard analysis, tested as the radiolabelled form, tested form: tritiated radioligand (3H position not s).

In turn, `CCCN(CCC)CC1CCCCN1CCNC(=O)N1c2ccccc2C(=O)Nc2cccnc21` (stereo not shown) registered a Kd of 5.77 nM.
